## Yeast mating assay 1: variants of the scFv Ab-14

Reference: Engelhart et al. 2022, doi:10.1038/s41597-022-01779-4. File: FLAb, binding data.

Binding partner: SARS-CoV-2 spike HR2 peptide, sequence PDVDLGDISGINAS.

Each scFv is VH, a 15-residue (Gly4Ser)3 linker, VL, as in the parent Ab-14, and differs from it in the CDRs of the heavy chain only.
VH: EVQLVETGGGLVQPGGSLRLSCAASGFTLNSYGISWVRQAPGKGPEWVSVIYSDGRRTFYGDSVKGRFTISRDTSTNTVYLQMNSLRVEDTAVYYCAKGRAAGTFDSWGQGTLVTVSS
VL: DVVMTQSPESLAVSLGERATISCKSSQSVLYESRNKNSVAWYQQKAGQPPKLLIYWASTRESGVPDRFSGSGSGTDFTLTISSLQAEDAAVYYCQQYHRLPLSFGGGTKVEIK

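In library AAYL49, one, two or three CDR residues were substituted; doubles and triples were drawn at random. The scFvs were displayed on barcoded MATa yeast, the peptide on MATalpha yeast. Pairs that bind mate more often; barcode pairs of the diploids are counted by sequencing. A regression on co-assayed BCL2-family reference pairs converts the normalised counts of each replicate to an apparent Kd. Mating was done three times.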

Changes read parent residue, position, new residue, counted from the first residue of the VH shown.
Affinities are written as log10 Kd with Kd in nM; a lower number is a better binder.
An entry "nd" has no value in the source: the pair was not observed among the diploids in that replicate. This suggests poor binding but is not conclusive.

The variant N30A+S35K+A101V gave 2.64, nd, nd (controls 0 of 9).
The variant S53V+T58M gave 2.76, 2.66, 2.64 (controls 6 of 9).
The variant D54R+F59K gave nd, nd, nd (controls 1 of 9).
The variant Y32H+S63L+A102M gave nd, 3.73, nd (controls 2 of 9).
The variant F59I+D106W+S107D gave nd, nd, nd (controls 0 of 9).
The variant T28E+A101R gave 1.16, 1.18, 1.05 (controls 0 of 9).
The variant S53M+Y60Q+S107R gave nd, nd, nd (controls 0 of 9).
The variant R100S+T104S+S107Q gave 3.80, 3.02, nd (controls 5 of 9).
The variant V64F+R100N+G103A gave 1.86, 2.16, 2.30 (controls 1 of 9).
The variant N30G+D54W+G103V gave nd, nd, nd (controls 0 of 9).
The variant N30F+D106F+S107D gave 2.37, 1.44, 2.12 (controls 0 of 9).
The variant L29N+N30H+G99W gave 3.99, nd, 4.10 (controls 1 of 9).
The variant Y52E+D62L+A102P gave nd, nd, 3.05 (controls 1 of 9).
The variant N30F+T104V+S107C gave 1.79, 1.78, 2.17 (controls 4 of 9).
The variant F27W+G99N+A101K gave 5.60, 4.59, 5.43 (controls 6 of 9).
The variant G33D+T58L+Y60R gave nd, 4.51, nd (controls 2 of 9).
The variant S53E+F59W+V64D gave nd, 3.09, nd (controls 3 of 9).
The variant Y32V+Y60K+S63A gave nd, nd, nd (controls 0 of 9).
The variant D54V+R57A+T58D gave nd, nd, nd (controls 0 of 9).
The variant N30R+T58Q+D62M gave nd, 4.80, nd (controls 3 of 9).
The variant L29C+G55V+G61S gave nd, nd, nd (controls 0 of 9).
The variant Y32E+G33T+V64Y gave nd, nd, nd (controls 2 of 9).
The variant Y60A+V64K+G99N gave 5.74, 4.79, nd (controls 6 of 9).
The variant I51N+T58I+Y60A gave nd, nd, nd (controls 0 of 9).
The variant L29F+R56Y+F59G gave nd, nd, 2.63 (controls 2 of 9).
The variant G55R+T58Y+D106G gave 5.70, nd, nd (controls 4 of 9).
The variant F27I+S31W+V50R gave nd, 4.77, 4.62 (controls 4 of 9).
The variant S53A+R56L+R100Q gave 1.54, 1.55, 1.40 (controls 1 of 9).
The variant K65D+F105G+D106Q gave 2.83, 2.77, 1.93 (controls 0 of 9).
The variant D62K+K65E+A102F gave nd, 2.81, 3.35 (controls 4 of 9).
The variant I34M+F59D+V64S gave nd, nd, nd (controls 0 of 9).
The variant T28L+S53M+G99C gave 4.35, nd, nd (controls 1 of 9).
The variant S63D+G103C gave 0.66, 1.14, 0.94 (controls 1 of 9).
The variant Y52P+G55A gave nd, 3.80, 3.39 (controls 4 of 9).
The variant V50R+K65R+G103W gave nd, nd, nd (controls 0 of 9).

The first 4 variants above that were never detected:

changes,log10 Kd (nM) by replicate,control signals
D54R+F59K,"nd, nd, nd",1 of 9
F59I+D106W+S107D,"nd, nd, nd",0 of 9
S53M+Y60Q+S107R,"nd, nd, nd",0 of 9
N30G+D54W+G103V,"nd, nd, nd",0 of 9

Nonspecific signal, from three strains lacking the peptide, appeared in 15% of pairings of library AAYL49, centred on 4.06 (5% of these signals below 2.83); values are not corrected for it. For each scFv, signals with the empty controls are counted beside the result.